The source of these data is PubChem BioAssay AID1224861 (National Center for Advancing Translational Sciences (NCATS), 2016).

This is a selection; strong and weak results do not stand in their true shares. Inconclusive results are not listed. Active and inactive are the calls of the source. Calls follow the shape of the dose curve; as a rule, active = well fitted cell-killing curve with a large enough effect; inconclusive = small, poorly fitted or top-dose-only effect, or effect the other way; inactive = flat fitted curve, though single readings scatter.

The nature of the experiment: Compound cytotoxicity measured by an ATP content assay as a counter-screen for lead compounds in human astrocytes. The settings on record: human astrocytes viability, ATP luminescence; at 46.1 µM (top of the series). On the procedure: National Center for Advancing Translational Sciences [NCATS] Johns Hopkins University School of Medicine Florida State University Assay Overview: Many compounds can cause cytotoxicity at high compound concentrations. […] The compound cytotoxicity may also cause side effects or toxicity in human. Thus, the compound cytotoxicity needs to be measured in each cell type and each compound incubation time - same as these in the compound screening assay. The compound cytotoxicity can be measured by cell viability assays such as the ATP content assay. We use an ATP content assay kit for cell viability measurement. It measures ATP content (level) in human astrocytes using a luminescence readout that is proportional to viable cell numbers. Decrease in the luminescence signal after the compound treatment indicates reduced cell viability and cell death caused by compound treatment.
Assay Protocol Summary: The medium for astrocytes contains AM basal medium (ScienCell, Cat.# 1801), AGS (ScienCell, Cat.# 1801), 10% FBS, and 1% Pen/Strep. […] After incubation at room temperature for 10 minutes, the luminescence intensity in assay plates was measured using a ViewLux plate reader (PerkinElmer). […] The percentage inhibitions of the decreased cell viability by small molecules were then calculated that indicate compound cytotoxicity.
For orientation: A counterscreen serves to expose hits that act by an unwanted route or on another target.

Regarding `C/C1=C2N=C(/C=C3N=C(/C(C)=C4\[N-][C@@](C)([C@@H]5N=C1[C@](C)(CCC(=O)NC[C@@H](C)OP(=O)([O-])O[C@H]1[C@@H](O)[C@@H](n6cnc7cc(C)c(C)cc76)O[C@@H]1CO)[C@H]5CC(N)=O)[C@@](C)(CC(N)=O)[C@@H]4CCC(N)=O)[C@@](C)(CC(N)=O)[C@@H]\3CCC(N)=O)C(C)(C)[C@@H]/2CCC(N)=O.[C-]#N.[Co+3]`, the activity change, negative = cytotoxicity was inactive: -10.9%.

`CCOP(=O)(CC)Oc1ccc([N+](=O)[O-])cc1` (configuration not stated): the activity change, negative = cytotoxicity is inactive: 3.19%.
